# Laboratory results reported in patent US20060047261A1, “Intra-arterial catheter for drug delivery” (priority 2004, published 2006).
# Several values for one entry are separate records, joined by “and”; a condition that tells them apart may be missing. Equal values may be shown once. Read-outs that look alike come from different tables or passages of the source.
# Tested on: New Zealand White rabbits
# Details: for Silence Duration: N = 9; for % Δ-CLD (%-change in CLD from baseline) / % Δ-ILD (%-change in ILD from baseline): baseline = 100
compound,measurement,setting,value
CCCC(C)C1(CC)C(=O)NC(=S)NC1=O (stereo not shown) [pentothal],Post-silence recovery time,Pentothal + Arrest,85 ± 27 s
same,Total Recovery Time,Pentothal + Arrest,291 ± 60 s
same,Silence Duration,Pentothal + Arrest: 3 mg intracarotid during esmolol/adenosine flow arrest,206 ± 46 s
same,CLD Flow,"Pentothal + Arrest, Drug",41 ± 21 PU
same,Heart Rate,"Pentothal + Arrest, Drug",125 ± 19 bpm
same,ILD Flow,"Pentothal + Arrest, Drug",33±11 PU
same,MAP,"Pentothal + Arrest, Drug",26 ± 2 mm Hg
same,% Δ-CLD (%-change in CLD from baseline),"Pentothal + Arrest, Drug",36 ± 9 %
same,% Δ-ILD (%-change in ILD from baseline),"Pentothal + Arrest, Drug",20-30% and 27 ± 8 %
same,CLD Flow,"Pentothal + Arrest, Recovery",106 ± 34 PU
same,Heart Rate,"Pentothal + Arrest, Recovery",258 ± 44 bpm
same,ILD Flow,"Pentothal + Arrest, Recovery",161 ± 81 PU
same,MAP,"Pentothal + Arrest, Recovery",91 ± 14 mm Hg
same,% Δ-CLD (%-change in CLD from baseline),"Pentothal + Arrest, Recovery",100 ± 32%
same,% Δ-ILD (%-change in ILD from baseline),"Pentothal + Arrest, Recovery",124 ± 33%
same,Post-silence recovery time,Pentothal-1 (before arrest),81 ± 27 s
same,Total Recovery Time,Pentothal-1 (before arrest),126 ± 29 s
same,Silence Duration,Pentothal-1: 3 mg intracarotid before flow arrest,45 ± 5 s and 46 ± 5 s
same,CLD Flow,"Pentothal-1, Drug",111 ± 50 PU
same,Heart Rate,"Pentothal-1, Drug",262 ± 36 bpm
same,ILD Flow,"Pentothal-1, Drug",147 ± 83 PU
same,MAP,"Pentothal-1, Drug",94 ± 17 mm Hg
same,% Δ-CLD (%-change in CLD from baseline),"Pentothal-1, Drug",106 ± 38 %
same,% Δ-ILD (%-change in ILD from baseline),"Pentothal-1, Drug",106 ± 51 %
same,CLD Flow,"Pentothal-1, Recovery",93 ± 23 PU
same,Heart Rate,"Pentothal-1, Recovery",241 ± 29 bpm
same,ILD Flow,"Pentothal-1, Recovery",140 ± 66 PU
same,MAP,"Pentothal-1, Recovery",102 ± 7 mm Hg
same,% Δ-CLD (%-change in CLD from baseline),"Pentothal-1, Recovery",94 ± 19%
same,% Δ-ILD (%-change in ILD from baseline),"Pentothal-1, Recovery",101 ± 29%
same,Post-silence recovery time,Pentothal-2 (after arrest),94 ± 55 s
same,Total Recovery Time,Pentothal-2 (after arrest),161 ± 71 s
same,Silence Duration,Pentothal-2: 3 mg intracarotid after flow arrest,67 ± 27 s
same,CLD Flow,"Pentothal-2, Drug",118 ± 41 PU
same,Heart Rate,"Pentothal-2, Drug",254 ± 20 bpm
same,ILD Flow,"Pentothal-2, Drug",140 ± 55 PU
same,MAP,"Pentothal-2, Drug",91 ± 21 mm Hg
same,% Δ-CLD (%-change in CLD from baseline),"Pentothal-2, Drug",112 ± 26 %
same,% Δ-ILD (%-change in ILD from baseline),"Pentothal-2, Drug",104 ± 30 %
same,CLD Flow,"Pentothal-2, Recovery",89 ± 38 PU
same,Heart Rate,"Pentothal-2, Recovery",268 ± 22 bpm
same,ILD Flow,"Pentothal-2, Recovery",129 ± 68 PU
same,MAP,"Pentothal-2, Recovery",99 ± 11 mm Hg
same,% Δ-CLD (%-change in CLD from baseline),"Pentothal-2, Recovery",83 ± 22%
same,% Δ-ILD (%-change in ILD from baseline),"Pentothal-2, Recovery",92 ± 38%
same,prolongation in the duration of electrocerebral silence,pentothal+arrest vs. pentothal-1 and 2,3-5 folds
